Values after ≈ are worked out from the molar mass of the structure shown.

Protein sequences, listed by entry. Tags and fused reporters are not part of them.
UniProt P34913, whole entry: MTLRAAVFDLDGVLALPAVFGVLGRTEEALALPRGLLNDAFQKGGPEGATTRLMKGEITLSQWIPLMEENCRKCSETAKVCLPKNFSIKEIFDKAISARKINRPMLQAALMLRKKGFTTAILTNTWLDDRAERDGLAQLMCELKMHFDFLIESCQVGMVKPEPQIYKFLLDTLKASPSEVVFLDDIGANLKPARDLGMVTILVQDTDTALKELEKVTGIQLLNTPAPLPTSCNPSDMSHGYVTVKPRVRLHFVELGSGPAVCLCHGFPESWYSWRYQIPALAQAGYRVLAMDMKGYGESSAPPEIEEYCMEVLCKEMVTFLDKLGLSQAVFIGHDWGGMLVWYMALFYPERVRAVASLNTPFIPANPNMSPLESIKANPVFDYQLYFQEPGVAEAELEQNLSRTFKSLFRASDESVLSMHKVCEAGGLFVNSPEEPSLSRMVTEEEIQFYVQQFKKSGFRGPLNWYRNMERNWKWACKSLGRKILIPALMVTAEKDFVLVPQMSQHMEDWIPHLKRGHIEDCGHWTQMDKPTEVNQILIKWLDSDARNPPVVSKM

For test [1], the system named is Mycobacterium tuberculosis. Description: microbe, parasite or virus in culture. Particulars: H37Rv, 168 h.
The target in test [2] is Bifunctional epoxide hydrolase 2 (Homo sapiens, UniProt P34913). Description: Inhibition of human recombinant soluble epoxide hydrolase using CMNPC as substrate after 10 mins by fluorescent assay.

As a reminder, the IC50 is the concentration that gives 50% inhibition. In turn, `O=C(Nc1ccc(F)c(F)c1F)NC12CC3CC(CC(C3)C1)C2` registered an MIC in test [1] of 0.4 µg/mL (≈ 1.23 µM). In addition, the IC50 in test [2] was determined as 0.4 nM.

The values are drawn from ChEMBL document CHEMBL1817626, “The structure-activity relationship of urea derivatives as anti-tuberculosis agents” (Bioorg Med Chem, 2011).
